Results published in published antibiotic growth screens (doi:10.1038/s41589-023-01349-8).
The other results are listed elsewhere or left out.

Tested on: A. baumannii ATCC 17978
Experiment: relative growth (fraction of control); higher = less inhibition
Details: 50 µM

| SMILES | relative growth |
| --- | --- |
| O=c1[nH]c(=O)n(C2C[C@H](O)[C@@H](CO)O2)cc1C(F)(F)F (stereo partly drawn) | 0.984 |
| Cl.Nc1c(Br)cc(Br)cc1CNC1CCC(O)CC1 (stereo not drawn) | 0.769 |
| Clc1ccc(COC(Cn2ccnc2)c2ccc(Cl)cc2Cl)c(Cl)c1.O=[N+]([O-])O (stereo not drawn) | 1.13 |
| O=c1[nH]cc(F)c(=O)[nH]1 | 0.882 |
| CCc1ccc(NC(=N)N=C(N)N)cc1 | 0.987 |
| COc1ccc(Cc2nn[nH]n2)cc1 | 0.977 |
| O=C1CSC(=Nc2nccs2)N1 | 0.915 |
| CN(C)c1n[nH]c(=O)[nH]c1=O | 1.12 |
| O=c1cc(-c2cc(O)c(O)c(O)c2)oc2cc(O)cc(O)c12 | 0.822 |
| O=C(C[C@@H]1C=C[C@H](NC(=O)c2ccncc2)[C@H](CO)O1)NCc1ccncn1 | 1.09 |
| CC[C@@H]1COCCC(=O)N1 | 0.92 |
| O=C(Nc1cc(Cl)cc(Cl)c1O)c1c(O)c(Cl)cc(Cl)c1Cl | 0.681 |
| CCOC[C@@H](O)CS(=O)(=O)c1ccccn1 | 1.04 |
| O=C(N[C@@H]1CC[C@@H](CC(=O)N2CCOCC2)O[C@@H]1CO)c1ccccn1 | 1 |
| CN(C)C(=O)Cn1c(=O)oc2ccccc21 | 1.02 |
| CO[C@H]1CN(C)C(=O)c2ccc(NC(=O)c3ccc(F)cc3)cc2OC[C@H](C)N(C(=O)CN(C)C)C[C@H]1C | 1.15 |
| C[C@@H]1CC(=O)NN=C1c1ccc(NN=C(C#N)C#N)cc1 | 0.958 |
| CC(=O)Nc1c(C)[nH]c2ncnn2c1=O | 0.974 |
| OC[C@H](O)C(O)[C@@H](O)CO | 1.11 |
| C[C@H]1CN([C@@H](C)CO)S(=O)(=O)c2ccc(C#CC3CC3)cc2O[C@H]1CN(C)C(=O)C1CCCCC1 | 0.914 |

| SMILES | relative growth |
| --- | --- |
| O=C(C[C@H]1C=C[C@@H](NS(=O)(=O)c2ccc(F)cc2)[C@H](CO)O1)NCCN1CCCCC1 | 0.974 |
| Cc1cn([C@H]2C[C@@H](NC(=O)C(C)(C)C)[C@@H](CO)O2)c(=O)[nH]c1=O | 1.11 |
| COC(=O)C1=C(C)NC(C)=C(C(=O)OC)C1c1ccccc1[N+](=O)[O-] | 1.09 |
| C=C1C[C@@]23CC[C@@H]4[C@@](C)(CCC[C@@]4(C)C(=O)OC)[C@H]2CC[C@@H]1C3 | 0.986 |
| Cc1cc(S(=O)(=O)N2CCCO[C@@H]2CNC(=O)C(=O)NCc2ccncc2)ccc1F | 1.14 |
| CN1CCN(CCCN2c3ccccc3Sc3ccc(C(F)(F)F)cc32)CC1.Cl.Cl | 0.66 |
| N=C(N)SCCN1C(=O)c2ccccc2C1=O | 1.21 |
| CCOC(=O)CN(C#N)c1nc(C)cc(C)n1 | 0.979 |
| Cn1nnnc1SCC(=O)NC(C)(C)C | 0.955 |
| COCCOC(=O)N1C(=O)[C@@]2(c3ccccc31)[C@H](C(=O)N1CCc3cc(OC)c(OC)cc3C1)[C@H]1C(=O)O[C@H](c3ccccc3)[C@H](c3ccccc3)N1[C@@H]2c1ccc(O)cc1 | 1.03 |
| Cc1n[nH]c(=O)nc1NC1CC1 | 1.02 |
| O=C(CN1CCOCC1)NCC[C@@H]1CC[C@@H](NC(=O)c2ccc3c(c2)OCO3)[C@@H](CO)O1 | 0.947 |
| O=C([O-])c1cc(=O)c2c(OCC(O)COc3cccc4oc(C(=O)[O-])cc(=O)c34)cccc2o1.[Na+].[Na+] | 0.992 |
| O=c1[nH]c(=O)c2cc(Br)ccc2[nH]1 | 1.09 |
| C[C@H](O)C#Cc1ccc2c(c1)O[C@@H](CN(C)C(=O)c1ccccc1)[C@H](C)CN([C@@H](C)CO)S2(=O)=O | 0.918 |
| C[C@@H](O)C#Cc1ccc2c(c1)O[C@@H](CN(C)C(=O)Nc1ccccc1)[C@@H](C)CN([C@@H](C)CO)S2(=O)=O | 0.816 |
| Nc1ccc(O)c(C(=O)O)c1 | 0.936 |
| Cc1noc(C)c1NC(=O)N[C@@H]1CC[C@H](CC(=O)NCCCN(C)C)O[C@H]1CO | 0.811 |
| Nc1nc(=O)c2c([nH]1)NCC(CNc1ccc(C(=O)N[C@H](CCC(=O)O)C(=O)O)cc1)=N2 | 0.901 |
| O=C(C[C@@H]1C=C[C@@H](NS(=O)(=O)c2ccc(F)cc2)[C@H](CO)O1)N1CCC(Cc2ccccc2)CC1 | 0.879 |

| SMILES | relative growth |
| --- | --- |
| Cc1cc(OC(=O)c2c(C)cc(O)cc2O)cc(O)c1C(=O)O | 0.923 |
| COc1nc(C#N)nc(N2CCCCC2)n1 | 0.945 |
| CN(C)CCCNC(=O)C[C@H]1CC[C@@H](NS(=O)(=O)c2ccccc2)[C@@H](CO)O1 | 1.06 |
| C[n+]1c2cc(N)ccc2cc2ccc(N)cc21.[Cl-] | 0.389 |
| C=CCN1C(=O)[C@]2(O[C@H](CCn3cc(CCO)nn3)[C@@H]([Si](C)(C)c3ccc(OC)cc3)[C@@H]2C)c2cc(N3CCC3=O)ccc21 | 0.736 |
| C[C@@H]1CN([C@H](C)CO)C(=O)c2cc(C#CC3(O)CCCC3)cnc2O[C@H]1CN(C)S(=O)(=O)c1ccc(F)cc1 | 0.976 |
| CO[C@@]1(NC(=O)C2SC(=C(C(N)=O)C(=O)O)S2)C(=O)N2C(C(=O)O)=C(CSc3nnnn3C)CS[C@@H]21 (stereo partly drawn) | 0.315 |
| Cc1cc(NC(=O)C2=C(O)c3ccccc3S(=O)(=O)N2C)no1 | 0.899 |
| CO[C@@H]1[C@@H](O[C@@H]2O[C@H](C)[C@@H](O[C@H]3C[C@@](C)(O)[C@H](O)[C@H](C)O3)[C@H](N(C)C)[C@H]2O)[C@@H](CC=O)C[C@@H](C)[C@@H](O[C@H]2CC[C@H](N(C)C)[C@@H](C)O2)/C=C/C=C/C[C@H](C)OC(=O)C[C@H]1O | 0.805 |
| O=C(N[C@H]1CC[C@@H](CCNS(=O)(=O)c2ccc(F)cc2)O[C@@H]1CO)C1CC1 | 1.09 |
| CC(C)NC(=O)N(C)C[C@H]1Oc2cc(C#Cc3cccc(F)c3)ccc2S(=O)(=O)N([C@H](C)CO)C[C@@H]1C | 0.903 |
| CN(C)CC(c1ccc(O)cc1)C1(O)CCCCC1.O=C(O)CCC(=O)O (stereo not drawn) | 0.946 |
| CN1C[C@@H](O)COC[C@@H]2O[C@@H](CC(=O)N3CCN(c4ccccc4)CC3)CC[C@H]21 | 0.978 |
| COCC(=O)N(C)C[C@@H]1Oc2cc(C#CC(C)(C)O)ccc2S(=O)(=O)N([C@H](C)CO)C[C@H]1C | 1.08 |
| C[C@H]1CNC(=O)O1 | 1.17 |
| CCCCOc1cc(C(=O)OCCN(CC)CC)ccc1N.Cl | 0.868 |
| C=CCN1C(=O)[C@@H]2[C@@H](C1=O)[C@@H]1C=C[C@@H]2C1 | 0.97 |
| O=C(CN1CCOCC1)N[C@H]1CC[C@@H](CCNC(=O)Nc2cc(F)ccc2F)O[C@H]1CO | 0.829 |
